Reference: publication PMC6273627, “Extended N-Arylsulfonylindoles as 5-HT6 Receptor Antagonists: Design, Synthesis & Biological Evaluation” (Molecules, 2016)

Sequences of proteins named here, by UniProt entry; tags and fusion partners are left off.
UniProt P50406, whole entry: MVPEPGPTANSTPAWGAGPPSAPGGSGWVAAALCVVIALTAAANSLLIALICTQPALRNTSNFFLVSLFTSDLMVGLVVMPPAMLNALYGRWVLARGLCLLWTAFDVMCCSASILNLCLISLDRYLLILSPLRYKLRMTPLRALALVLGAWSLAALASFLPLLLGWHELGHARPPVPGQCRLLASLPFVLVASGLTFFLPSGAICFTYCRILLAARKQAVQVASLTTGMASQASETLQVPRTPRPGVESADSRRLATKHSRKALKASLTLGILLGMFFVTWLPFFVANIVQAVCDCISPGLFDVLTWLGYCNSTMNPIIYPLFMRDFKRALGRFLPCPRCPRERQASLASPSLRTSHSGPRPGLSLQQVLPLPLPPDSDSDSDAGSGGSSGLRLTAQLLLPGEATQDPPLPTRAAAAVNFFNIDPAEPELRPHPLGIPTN

What was measured:
[1] = molecular target: T1, recombinant human 5-HT6 receptor (Homo sapiens, UniProt P50406); conditions: for pKi: experimental value repeated in Table 5 beside docking scores (value of the tested compound, listed per docked stereoisomer); for decrease in affinity with pyridyl versus 2-methoxyphenyl group: compared with 4b, 4g, 4j
[2] = molecular target: T1, recombinant human 5-HT6 receptor; test: biochemical

SMILES | pKi [1] | Ki [2] | decrease in affinity with pyridyl versus 2-methoxyphenyl group [1]
COc1ccc(S(=O)(=O)n2cc([C@@H](O)CN3CCOCC3)c3ccccc32)cc1 [Compound 4l_r] | 6.05 |  | 
O=S(=O)(c1ccc(I)cc1)n1cc([C@H](O)CN2CCN(c3ncccn3)CC2)c2ccccc21 [Compound 4h_s] | 6.21 |  | 
O=S(=O)(c1ccc(F)cc1)n1cc([C@@H](O)CN2CCN(c3ncccn3)CC2)c2ccccc21 [Compound 4e_r] | 5.66 |  | 
O=S(=O)(c1ccc(F)cc1)n1cc([C@H](O)CN2CCN(c3ncccn3)CC2)c2ccccc21 [Compound 4e_s] | 5.66 |  | 
Cc1ccc(S(=O)(=O)n2cc([C@H](O)CN3CCN(c4ncccn4)CC3)c3ccccc32)cc1 [Compound 4c_s] | 6.07 |  | 
O=S(=O)(c1cccc2ccccc12)n1cc([C@H](O)CN2CCN(c3ncccn3)CC2)c2ccccc21 [Compound 4k_s] | 6.22 |  | 
COc1ccccc1N1CCN(C[C@H](O)c2cn(S(=O)(=O)c3ccc(C)cc3)c3ccccc23)CC1 [Compound 4b_r] | 7.87 |  | 
COc1ccccc1N1CCN(C[C@H](O)c2cn(S(=O)(=O)c3cccc4ccccc34)c3ccccc23)CC1 [Compound 4j_r] | 7.83 |  | 
O=S(=O)(c1cccc2ccccc12)n1cc([C@@H](O)CN2CCN(c3ccccn3)CC2)c2ccccc21 [Compound 4i_r] | 6.83 |  | 
O=S(=O)(c1cccc2ccccc12)n1cc([C@@H](O)CN2CCN(c3ncccn3)CC2)c2ccccc21 [Compound 4k_r] | 6.22 |  | 
O=S(=O)(c1cc(F)cc(F)c1)n1cc([C@@H](O)CN2CCOCC2)c2ccccc21 [Compound 4m_r] | 5.12 |  | 
O=S(=O)(c1ccc(I)cc1)n1cc([C@@H](O)CN2CCN(c3ncccn3)CC2)c2ccccc21 [Compound 4h_r] | 6.21 |  | 
COc1ccccc1N1CCN(C[C@@H](O)c2cn(S(=O)(=O)c3ccc(I)cc3)c3ccccc23)CC1 [Compound 4g_s] | 7.73 |  | 
COc1ccccc1N1CCN(C[C@@H](O)c2cn(S(=O)(=O)c3ccc(C)cc3)c3ccccc23)CC1 [Compound 4b_s] | 7.87 |  | 
Cc1ccc(S(=O)(=O)n2cc([C@@H](O)CN3CCN(c4ccccn4)CC3)c3ccccc32)cc1 [Compound 4a_r] | 6.32 |  | 
O=S(=O)(c1cc(F)cc(F)c1)n1cc([C@H](O)CN2CCOCC2)c2ccccc21 [Compound 4m_s] | 5.12 |  | 
O=S(=O)(c1ccc(Cl)cc1)n1cc([C@@H](O)CN2CCN(c3ncccn3)CC2)c2ccccc21 [Compound 4d_r] | 5.43 |  | 
O=S(=O)(c1cccc2ccccc12)n1cc([C@H](O)CN2CCN(c3ccccn3)CC2)c2ccccc21 [Compound 4i_s] | 6.83 |  | 
Cc1ccc(S(=O)(=O)n2cc([C@@H](O)CN3CCN(c4ncccn4)CC3)c3ccccc32)cc1 [Compound 4c_r] | 6.07 |  | 
O=S(=O)(c1ccc(I)cc1)n1cc([C@@H](O)CN2CCN(c3ccccn3)CC2)c2ccccc21 [Compound 4f_r] | 6.43 |  | 
O=S(=O)(c1ccc(Cl)cc1)n1cc([C@H](O)CN2CCN(c3ncccn3)CC2)c2ccccc21 [Compound 4d_s] | 5.43 |  | 
Cc1ccc(S(=O)(=O)n2cc([C@H](O)CN3CCN(c4ccccn4)CC3)c3ccccc32)cc1 [Compound 4a_s] | 6.32 |  | 
COc1ccc(S(=O)(=O)n2cc([C@H](O)CN3CCOCC3)c3ccccc32)cc1 [Compound 4l_s] | 6.05 |  | 
O=S(=O)(c1ccc(I)cc1)n1cc([C@H](O)CN2CCN(c3ccccn3)CC2)c2ccccc21 [Compound 4f_s] | 6.43 |  | 
COc1ccccc1N1CCN(C[C@H](O)c2cn(S(=O)(=O)c3ccc(I)cc3)c3ccccc23)CC1 [Compound 4g_r] | 7.73 |  | 

Next, values leading:

pKi [1] | Ki [2] | decrease in affinity with pyridyl versus 2-methoxyphenyl group [1] | SMILES
5.9 | 1260 nM |  | COc1ccccc1N1CCN(CC(=O)c2cn(S(=O)(=O)c3cccc4ccccc34)c3ccccc23)CC1 [Compound 3j, 2-(4-(2-Methoxyphenyl)piperazin-1-yl)-1-(1-(naphthalen-1-ylsulfonyl)-1H-indol-3-yl)ethanone]
 | 372 nM | 10–35 times | O=S(=O)(c1ccc(I)cc1)n1cc(C(O)CN2CCN(c3ccccn3)CC2)c2ccccc21 (stereo not shown) [Compound 4f, 1-(1-(4-Iodophenylsulfonyl)-1H-indol-3-yl)-2-(4-(pyridin-2-yl)piperazin-1-yl)ethanol]
4.97 | 10700 nM |  | COc1ccccc1N1CCN(CC(=O)c2cn(S(=O)(=O)c3ccc(C)cc3)c3ccccc23)CC1 [Compound 3b, 2-(4-(2-Methoxyphenyl)piperazin-1-yl)-1-(1-tosyl-1H-indol-3-yl)ethanone]
6.38 | 417 nM |  | O=C(CN1CCN(c2ncccn2)CC1)c1cn(S(=O)(=O)c2ccc(I)cc2)c2ccccc12 [Compound 3h, 1-(1-(4-Iodophenylsulfonyl)-1H-indol-3-yl)-2-(4-(pyrimidin-2-yl)piperazin-1-yl)ethanone]
5.07 | 8510 nM |  | O=C(CN1CCN(c2ncccn2)CC1)c1cn(S(=O)(=O)c2ccc(Cl)cc2)c2ccccc12 [Compound 3d, 1-(1-(4-Chlorophenylsulfonyl)-1H-indol-3-yl)-2-(4-(pyrimidin-2-yl)piperazin-1-yl)ethanone]
 | 3720 nM |  | O=S(=O)(c1ccc(Cl)cc1)n1cc(C(O)CN2CCN(c3ncccn3)CC2)c2ccccc21 (stereo not shown) [Compound 4d, 1-(1-(4-Chlorophenylsulfonyl)-1H-indol-3-yl)-2-(4-(pyrimidin-2-yl)piperazin-1-yl)ethanol]
6.35 | 447 nM |  | COc1ccc(S(=O)(=O)n2cc(C(=O)CN3CCOCC3)c3ccccc32)cc1 [Compound 3l, 1-(1-(4-Methoxyphenylsulfonyl)-1H-indol-3-yl)-2-morpholinoethanone]
4.65 | 22400 nM |  | O=C(CN1CCOCC1)c1cn(S(=O)(=O)c2cc(F)cc(F)c2)c2ccccc12 [Compound 3m, 1-(1-(3,5-Difluorophenylsulfonyl)-1H-indol-3-yl)-2-morpholinoethanone]
 | 2190 nM |  | O=S(=O)(c1ccc(F)cc1)n1cc(C(O)CN2CCN(c3ncccn3)CC2)c2ccccc21 (stereo not shown) [Compound 4e, 1-(1-(4-Fluorophenylsulfonyl)-1H-indol-3-yl)-2-(4-(pyrimidin-2-yl)piperazin-1-yl)ethanol]
5.72 | 1910 nM |  | COc1ccccc1N1CCN(CC(=O)c2cn(S(=O)(=O)c3ccc(I)cc3)c3ccccc23)CC1 [Compound 3g, 1-(1-(4-Iodophenylsulfonyl)-1H-indol-3-yl)-2-(4-(2-methoxyphenyl)piperazin-1-yl)ethanone]
 | 851 nM |  | Cc1ccc(S(=O)(=O)n2cc(C(O)CN3CCN(c4ncccn4)CC3)c3ccccc32)cc1 (stereo not shown) [Compound 4c, 2-(4-(Pyrimidin-2-yl)piperazin-1-yl)-1-(1-tosyl-1H-indol-3-yl)ethanol]
 | 18.6 nM |  | COc1ccccc1N1CCN(CC(O)c2cn(S(=O)(=O)c3ccc(I)cc3)c3ccccc23)CC1 (stereo not shown) [Compound 4g, 1-(1-(4-Iodophenylsulfonyl)-1H-indol-3-yl)-2-(4-(2-methoxyphenyl)piperazin-1-yl)ethanol]
 | 617 nM |  | O=S(=O)(c1ccc(I)cc1)n1cc(C(O)CN2CCN(c3ncccn3)CC2)c2ccccc21 (stereo not shown) [Compound 4h, 1-(1-(4-Iodophenylsulfonyl)-1H-indol-3-yl)-2-(4-(pyrimidin-2-yl)piperazin-1-yl)ethanol]
 | 891 nM |  | COc1ccc(S(=O)(=O)n2cc(C(O)CN3CCOCC3)c3ccccc32)cc1 (stereo not shown) [Compound 4l, 1-(1-(4-Methoxyphenylsulfonyl)-1H-indol-3-yl)-2-morpholinoethanol]
 | 7590 nM |  | O=S(=O)(c1cc(F)cc(F)c1)n1cc(C(O)CN2CCOCC2)c2ccccc21 (stereo not shown) [Compound 4m, 1-(1-(3,5-Difluorophenylsulfonyl)-1H-indol-3-yl)-2-morpholinoethanol]
 | 13.5 nM |  | COc1ccccc1N1CCN(CC(O)c2cn(S(=O)(=O)c3ccc(C)cc3)c3ccccc23)CC1 (stereo not shown) [Compound 4b, 2-(4-(2-Methoxyphenyl)piperazin-1-yl)-1-(1-tosyl-1H-indol-3-yl)ethanol]
5.75 | 1780 nM |  | Cc1ccc(S(=O)(=O)n2cc(C(=O)CN3CCN(c4ccccn4)CC3)c3ccccc32)cc1 [Compound 3a, 2-(4-(Pyridyl-2-yl)piperazin-1-yl)-1-(1-tosyl-1H-indol-3-yl)ethanone]
5.91 | 1230 nM |  | O=C(CN1CCN(c2ccccn2)CC1)c1cn(S(=O)(=O)c2cccc3ccccc23)c2ccccc12 [Compound 3i, 1-(1-(Naphthalen-1-ylsulfonyl)-1H-indol-3-yl)-2-(4-(pyridin-2-yl)piperazin-1-yl)ethanone]
 | 14.8 nM |  | COc1ccccc1N1CCN(CC(O)c2cn(S(=O)(=O)c3cccc4ccccc34)c3ccccc23)CC1 (stereo not shown) [Compound 4j, 2-(4-(2-Methoxyphenyl)piperazin-1-yl)-1-(1-(naphthalen-1-ylsulfonyl)-1H-indol-3-yl)ethanol]
5.85 | 1410 nM |  | O=C(CN1CCN(c2ncccn2)CC1)c1cn(S(=O)(=O)c2cccc3ccccc23)c2ccccc12 [Compound 3k, 1-(1-(Naphthalen-1-ylsulfonyl)-1H-indol-3-yl)-2-(4-(pyrimidin-2-yl)piperazin-1-yl)ethanone]
6.1 | 794 nM |  | O=C(CN1CCN(c2ccccn2)CC1)c1cn(S(=O)(=O)c2ccc(I)cc2)c2ccccc12 [Compound 3f, 1-(1-(4-Iodophenylsulfonyl)-1H-indol-3-yl)-2-(4-(pyridin-2-yl)piperazin-1-yl)ethanone]
 | 148 nM | 10–35 times | O=S(=O)(c1cccc2ccccc12)n1cc(C(O)CN2CCN(c3ccccn3)CC2)c2ccccc21 (stereo not shown) [Compound 4i, 1-(1-(Naphthalen-1-ylsulfonyl)-1H-indol-3-yl)-2-(4-(pyridin-2-yl)piperazin-1-yl)ethanol]
 | 603 nM |  | O=S(=O)(c1cccc2ccccc12)n1cc(C(O)CN2CCN(c3ncccn3)CC2)c2ccccc21 (stereo not shown) [Compound 4k, 1-(1-(Naphthalen-1-ylsulfonyl)-1H-indol-3-yl)-2-(4-(pyrimidin-2-yl)piperazin-1-yl)ethanol]
